Laboratory results taken from publication doi:10.1101/2025.10.30.685530 (bioRxiv, 2025).

Target: the molecule itself
Test: cryo-EM structure

B1: CXCR7 (atypical chemokine receptor 3), full-length construct with N-terminal FLAG-tag (receptor)
chain: MDLHLFDYSEPGNFSDISWPCNSSDCIVVDTVMCPNMPNKSVLLYTLSFIYIFIFVIGMIANSVVVWVNIQAKTTGYDTHCYILNLAIADLWVVLTIPVWVVSLVQHNQWPMGELTCKVTHLIFSINLFGSIFFLTCMSVDRYLSITYFTNTPSSRKKMVRRVVCILVWLLAFCVSLPDTYYLKTVTSASNNETYCRSFYPEHSIKEWLIGMELVSVVLGFAVPFSIIAVFYFLLARAISASSDQEKHSSRKIIFSYVVVFLVCWLPYHVAVLLDIFSILHYIPFTCRLEHALFTALHVTQCLSLVHCCVNPVLYSFINRNYRYELMKAFIFKYSAKTGLTKLIDASRVSETEYSALEQSTK
modifications: free cysteines alkylated with iodoacetamide
**Q.** For B1, which “stoichiometry N” value is on record?
**A.** The value was 2.
